{
  "source": "patent US20260028410A1",
  "about": "“TREATMENT OF GRAFT VERSUS HOST DISEASES USING ANTI-CD122 ANTIBODY” (FORTE SUBSIDIARY, INC., priority 2023, published 2026)",
  "origin": "cited, not measured here",
  "target": "high-affinity heterotrimer IL-αβγ receptor",
  "details": "ligand affinity for IL-αβγ receptor combinations; cited from earlier work",
  "data": [
    {"substance": "IL2: interleukin 2, cytokine", "values": [
      {"measurement": "Kd", "value": "~0.01", "unit": "nM"}
    ]}
  ]
}
